Source: patent US5594024A, “Centrally actig substituted phenylazacycloalkanes” (priority 1995, dated 1997)

Sequences of proteins named here, by UniProt entry; tags and fusion partners are left off.
UniProt P61169, whole entry: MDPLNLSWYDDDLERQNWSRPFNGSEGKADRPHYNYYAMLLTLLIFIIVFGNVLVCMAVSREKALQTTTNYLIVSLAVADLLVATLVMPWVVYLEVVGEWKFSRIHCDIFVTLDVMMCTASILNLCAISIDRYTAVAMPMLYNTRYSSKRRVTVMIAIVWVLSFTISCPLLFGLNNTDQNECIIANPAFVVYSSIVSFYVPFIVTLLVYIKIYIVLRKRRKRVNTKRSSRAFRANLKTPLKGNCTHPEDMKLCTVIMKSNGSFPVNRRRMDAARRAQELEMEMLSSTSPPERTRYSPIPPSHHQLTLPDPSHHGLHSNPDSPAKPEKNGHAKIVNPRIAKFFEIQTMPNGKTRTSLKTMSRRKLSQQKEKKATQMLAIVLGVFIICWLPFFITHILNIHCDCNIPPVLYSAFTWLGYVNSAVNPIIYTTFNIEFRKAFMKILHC

Tests used:
habituated rats = assay: Locomotor activity and behavior in habituated rats; assay type: in vivo, rat (male Sprague-Dawley)
D2 receptors = biological target: T1, D2 receptors (Rattus norvegicus, UniProt P61169); assay: D2 antagonist binding ([3H]-spiperone), rat striatum; conditions: read-out: in vitro binding IC50, D2 -spip
T1 construct: Preparation of rat striatal membranes for (3H)-spiperone; from tissue; host or cells: rat striatum (striatal membranes)

DA receptor = assay: DA metabolism (DOPAC, HVA levels) in habituated rats; assay type: in vivo, rat (male Sprague-Dawley); conditions: for response vs control in vivo at 400 µmol/kg: Rattus norvegicus, po, 1 h

For `CCCN1CCCC(c2cccc(C#N)c2)C1` (racemic) [(+)-S-34], the Behavioral observations (habituated rats; 100 μmol/kg sc) was “Activation”.

`CCCN1CCCC(c2ccccc2OS(=O)(=O)C(F)(F)F)C1` (racemic) [Racemic-19, 3-((2-(Trifluoromethyl)sulfonyl)oxyphenyl-N-n-propyl)piperidine] showed an IC50 (D2 receptors) of 550 nM.

With `C=CCN1CCC[C@@H](c2cccc(C#N)c2)C1` [Compound S-37, S-3-(3-Cyanophenyl-N-allyl)piperidine] the Behavioral observations (habituated rats; 100 μmol/kg sc) was “Activation”.

With `N#Cc1cccc([C@@H]2CCCN(CC3CC3)C2)c1` [Compound S-38, S-3-(3-Cyanophenyl-N-cyclopropylmethyl)piperidine] the Behavioral observations (habituated rats; 100 μmol/kg sc) was “Activation”.

In the case of `CN1CCC[C@@H](c2cccc(C#N)c2)C1` [S-(+)-32, S-(+)-3-(3-Cyanophenyl-N-methyl)piperidine], the Behavioral observations (habituated rats; 100 μmol/kg sc) is reported as “Weak stim”.

In the case of `CCCN1CCC[C@@H](c2cccc(C#N)c2)C1` [S-(-)-34, S-(-)-3-(3-Cyanophenyl-N-n-propyl)piperidine], the response vs control in vivo at 400 µmol/kg (DA receptor; read-out: DOPAC limbic) is reported as 246 ± 10%, the response vs control in vivo at 400 µmol/kg (DA receptor; read-out: DOPAC striatum) is reported as 259 ± 31% and the “brain DA metabolism (HVA, DOPAC) (in words)” value (DA receptor; sc) is reported as “pronounced and dose-dependent increase in brain DA metabolism”. The “efficacy of locomotor stimulation compared with reference compounds” value (habituated rats) was “lower than that of d-amphetamine but similar or even somewhat higher than that of the preferential DA autoreceptor antagonists (+)-AJ76 and (+)-UH232; also recorded: lower than that observed after classical stimulants like d-amphetamine and apomorphine but higher than that produced by the preferential dopamine autoreceptor antagonists (+)-UH232 and (+)-AJ76”, the “locomotor activity in habituated rats (in words)” value (habituated rats) was “produced a locomotor stimulation in habituated rats” and the stereotyped behavior (habituated rats) was “Stereotyped sniffing and rearing was also observed; also recorded: pronounced activation with weak stereotypies (sniffing and rearing)”. For the same compound, the Behavioral observations (habituated rats; 25 μmol/kg po) was “Activation”, the Behavioral observations (habituated rats; 100 μmol/kg sc) was “Activation” and the Behavioral observations (habituated rats; 400 μmol/kg po) was “Activation”.

Entries after “also recorded” stand apart in the source; their conditions may differ. Read-outs that look alike come from different tables or passages of the source.
